The values below are quoted from earlier work in publication PMC3050579.

The chains behind the UniProt entries cited, without tags or fusion partners. Where a name states a change or a piece, a line headed by the entry shows the natural chain unless it says otherwise.
UniProt P61077: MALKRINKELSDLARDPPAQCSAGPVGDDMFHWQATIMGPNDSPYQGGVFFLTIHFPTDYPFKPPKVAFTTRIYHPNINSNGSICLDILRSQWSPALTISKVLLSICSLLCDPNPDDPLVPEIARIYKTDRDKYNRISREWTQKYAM

As usually defined, the Kd is the equilibrium constant for the complex coming apart.

This data set concerns the target UbcH5C (Homo sapiens) (UniProt P61077). The settings on record: cited from earlier work.

As for ubiquitin (from UniProt P0CG48), the equilibrium dissociation constant (Kd) was 300 µM.
